Holding throughout (experiment): biochemical
One experiment has as its target δ1 Opiate Receptor (Homo sapiens, UniProt P41143).
A further experiment has as its target μ Opiate Receptor (Homo sapiens, UniProt P35372).
Experiment [1] has as its target Norepinephrine Uptake Site (Homo sapiens, UniProt P23975).
[2] abbreviates: read-out: Percent Inhibition at 10 μM.

Protein sequences, listed by entry. Tags and fused reporters are not part of them.
UniProt P35372, whole entry: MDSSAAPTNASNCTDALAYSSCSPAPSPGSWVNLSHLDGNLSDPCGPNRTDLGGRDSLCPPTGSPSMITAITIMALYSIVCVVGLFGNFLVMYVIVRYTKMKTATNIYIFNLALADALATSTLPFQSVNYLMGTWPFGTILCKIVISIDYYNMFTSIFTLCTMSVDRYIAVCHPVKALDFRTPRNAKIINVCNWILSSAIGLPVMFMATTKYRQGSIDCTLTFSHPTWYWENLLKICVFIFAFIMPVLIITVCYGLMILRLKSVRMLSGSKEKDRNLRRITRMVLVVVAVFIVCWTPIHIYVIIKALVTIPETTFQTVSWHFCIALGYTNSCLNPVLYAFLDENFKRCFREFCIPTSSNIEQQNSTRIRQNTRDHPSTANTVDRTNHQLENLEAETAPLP
UniProt P23975, whole entry: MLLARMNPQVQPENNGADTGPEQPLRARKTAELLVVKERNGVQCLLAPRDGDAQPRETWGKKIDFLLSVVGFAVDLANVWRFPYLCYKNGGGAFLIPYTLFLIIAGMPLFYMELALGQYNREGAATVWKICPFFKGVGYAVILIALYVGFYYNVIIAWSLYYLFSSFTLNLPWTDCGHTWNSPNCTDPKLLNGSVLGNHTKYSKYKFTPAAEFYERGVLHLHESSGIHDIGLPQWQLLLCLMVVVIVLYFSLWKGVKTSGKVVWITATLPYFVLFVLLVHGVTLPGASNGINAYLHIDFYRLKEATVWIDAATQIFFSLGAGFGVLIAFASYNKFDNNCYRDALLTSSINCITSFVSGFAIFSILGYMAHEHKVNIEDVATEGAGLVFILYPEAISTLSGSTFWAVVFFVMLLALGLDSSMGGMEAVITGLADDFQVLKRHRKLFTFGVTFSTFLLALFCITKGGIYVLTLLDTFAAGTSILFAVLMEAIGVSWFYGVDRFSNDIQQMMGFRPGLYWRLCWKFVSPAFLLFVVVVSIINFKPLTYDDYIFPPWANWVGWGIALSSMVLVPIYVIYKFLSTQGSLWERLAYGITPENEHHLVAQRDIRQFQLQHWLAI

Molecules are shown by their SMILES. A value given as a limit tells only on which side of the number the result lay.

For the molecule `CNC1(c2ccccc2Cl)CCCCC1=O` (stereo not drawn) [Ketamine], the IC50 (against δ1 Opiate Receptor; on μ Opiate Receptor; in experiment [1]) was > 10 µM in each case. Also, the inhibition at 10 µM on δ1 Opiate Receptor (setting [2]) was < 15%; on μ Opiate Receptor (setting [2]) it was < 15%; in experiment [1] (setting [2]), 23%.

The term IC50 denotes the concentration that gives 50% inhibition. A high value points to weaker potency. The term inhibition denotes how much of the control response was suppressed.
